Ab-95 light chain CDR variants: yeast mating affinities

Target peptide (SARS-CoV-2 spike, HR2 region): PDVDLGDISGINAS

The variants keep the heavy chain, the linker and the frameworks of Ab-95 (scFv order VH, a 15-residue (Gly4Ser)3 linker, VL).
VH: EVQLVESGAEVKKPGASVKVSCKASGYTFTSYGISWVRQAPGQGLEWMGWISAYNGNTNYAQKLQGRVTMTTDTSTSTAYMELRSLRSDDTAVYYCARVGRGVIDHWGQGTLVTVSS
VL: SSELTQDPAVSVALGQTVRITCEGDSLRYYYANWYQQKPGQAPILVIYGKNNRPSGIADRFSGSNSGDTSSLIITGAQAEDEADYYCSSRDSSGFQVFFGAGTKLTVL

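Phage display of a naive human antibody library on the peptide gave the parent. In library AAYL52, one, two or three CDR residues were substituted; doubles and triples were drawn at random. Affinity was read by AlphaSeq, a pooled yeast mating assay with surface-displayed partners. Pairs that bind mate more often; barcode pairs of the diploids are counted by sequencing. The ratio of observed to expected reads was calibrated, replicate by replicate, on BCL2-family standards whose Kd was known from biolayer interferometry. There are three technical replicates.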

The parent's light chain CDRs are EGDSLRYYYAN, GKNNRPS, SSRDSSGFQVF; each variant's own CDRs replace them letter for letter. The read-out is the apparent dissociation constant on a log10 scale (nM): the lower, the stronger. "nd" marks a missing value. The strain was present, yet no cells mated with the target were sequenced in that replicate, which points to weak or no binding. Empty control strains, which show no peptide, gave a signal in 28% of pairings with library AAYL52; the median was 3.91 and 95% of these signals were weaker than 2.90. No background was subtracted. For each scFv, signals with the empty controls are counted beside the result, with their mean in brackets. For reference, the parent read 2.31 as the reference entry and 2.25 as a member of this library.

| CDR-L1 | CDR-L2 | CDR-L3 | log10 Kd (nM) by replicate | signal with controls |
|---|---|---|---|---|
| GGDSLRYYYAN | GKNNRPS | SSRDSSGSYVF | 3.21 / 3.87 / 3.09 | 0 of 9 |
| EGDSLSYYYTN | GKNNRPS | SSRDSSGFQVF | 2.38 / 2.83 / 2.55 | 2 of 9 (4.32) |
| EGDSARYYYAN | GFNNRPS | SSRDSSGFQVC | 3.92 / 3.93 / 4.61 | 6 of 9 (4.05) |
| EGDSLRWYYAN | IKNNDPS | SSRDSSGFQVF | 3.83 / 5.02 / 3.97 | 1 of 9 (3.84) |
| EGDSLRYLYAN | GKNNRPS | SSRDSSGKQVF | 3.29 / 4.07 / 3.86 | 1 of 9 (4.74) |
| EGDSLRFYYAN | GKNNRPS | KSRDSSGFNVF | nd / 4.04 / nd | 4 of 9 (3.49) |
| EGDSLRVYCAN | GKNNRPS | SSRDSSGCQVF | nd / nd / 3.25 | 1 of 9 (2.62) |
| ECDSTRYYYAN | GKNNRPS | SSRDSPGFQVF | nd / 5.35 / 3.00 | 3 of 9 (3.62) |
| EGDSLRDYYAN | GKNNRPS | SSRDSSGYQVF | 2.10 / 1.91 / 1.85 | 3 of 9 (4.18) |
| EGDSIRYYYAN | GKDNRPS | CSRDSSGFQVF | 3.22 / 4.81 / 2.69 | 5 of 9 (3.90) |
| EGDSCRYYYAN | GKNNRPS | SFRDSSGQQVF | 4.13 / 5.78 / 4.63 | 0 of 9 |
| EGDSLGYYYAK | GKNNRNS | SSRDSSGFQVF | 4.08 / nd / nd | 0 of 9 |
| VGDSLRYYYAN | GKHNRPS | SSRDSSGQQVF | 3.81 / 3.46 / 2.58 | 3 of 9 (3.76) |
| EKDSLRYYFAN | GKNNRGS | SSRDSSGFQVF | nd / 4.32 / nd | 1 of 9 (4.90) |
| ECDSLRYYYAN | GKNNRPS | SSRDSSGFNVF | 3.42 / nd / 3.41 | 1 of 9 (4.43) |
| EGWSLRYPIAN | GKNNRPS | SSRDSSGFQVF | 3.43 / 4.62 / nd | 2 of 9 (4.34) |
| EGDSLRYYYAN | GKNNRPS | SSRWSSGSQMF | nd / nd / nd | 1 of 9 (3.01) |
| EGDSLRYYYAN | GESNRPS | SSRDSSGYQVF | 1.85 / 2.10 / 1.37 | 7 of 9 (4.11) |
| EGGSLRYYYAN | GKENRPS | SSRDSSGFQLF | 4.12 / nd / 3.28 | 5 of 9 (3.69) |
| EGDILRYYYAN | GKNNYPS | SSRDSSGFQHF | nd / nd / nd | 0 of 9 |
| EGDSLRYYYAN | GKINRPS | SSRYSSGFQIF | nd / 5.56 / nd | 1 of 9 (5.28) |
| DGDNLRYYYAQ | GKNNRPS | SSRDSSGFQVF | nd / 5.48 / 3.35 | 1 of 9 (3.19) |
| EGDSLRYEYAN | GCNLRPS | SSRDSSGFQVF | 4.02 / 3.94 / 3.46 | 4 of 9 (4.16) |
| EGDSLRCYYAN | GKNNRPS | SSRDSAAFQVF | nd / 2.57 / nd | 3 of 9 (4.02) |
| EGDSLRYYHAT | GKNNRPS | YSRDSSGFQVF | 3.71 / 3.27 / 4.50 | 5 of 9 (4.44) |
| EGDSLRYYYAN | GKNKRPS | SSRPSSGVQVF | 5.20 / nd / 3.68 | 2 of 9 (4.43) |
| AGDSLRYNYAD | GKNNRPS | SSRDSSGFQVF | 1.61 / 1.43 / 1.16 | 2 of 9 (3.83) |
| ECASLRYYYAN | RKNNRPS | SSRDSSGFQVF | 4.53 / 5.00 / 3.55 | 3 of 9 (3.39) |
| EGDSLRYAYAN | GKNNRPS | SIRDSSGFQVQ | 1.59 / 1.55 / 1.00 | 1 of 9 (3.07) |
| EGDSLRYYYAN | GHNNTPS | SSRNSSGFQVF | 2.39 / 2.65 / 2.58 | 6 of 9 (3.54) |
| EGDSLRYYYAN | GVVNRPS | SSRDSSQFQVF | 3.97 / nd / 4.26 | 4 of 9 (3.88) |
| EGDSLRYYYHN | GKNNRPS | WSRDSSGFQVF | 3.64 / nd / nd | 6 of 9 (4.28) |
| EGDQLRYYYAN | GKNNRPS | SSRDCSGFQVF | 3.84 / nd / 3.62 | 3 of 9 (4.13) |
| YGDSHRYYYWN | GKNNRPS | SSRDSSGFQVF | nd / nd / nd | 1 of 9 (1.78) |
| EGDSLRYYYAK | TKNNRPS | SSRDSSGCQVF | nd / nd / nd | 1 of 9 (3.80) |
| EGDSLRYYYAN | GKNNRPS | SDRDGSPFQVF | 2.35 / 2.36 / 2.06 | 3 of 9 (4.02) |
| EGDSPRYYYAN | GKHNVPS | SSRDSSGFQVF | nd / 4.11 / nd | 2 of 9 (4.36) |
| EGDSLRYYEAN | GMNNRPS | SSRDSSGFQVF | 1.31 / 1.26 / 0.68 | 8 of 9 (3.79) |
| EGDSLRYYYSN | GKNNRPF | SSRDSSGYQVF | 3.06 / 2.98 / 3.23 | 2 of 9 (4.23) |
| EGDSLRYYYAN | GKNNRPS | SSRDSSGAQVF | 2.16 / 1.49 / 1.13 | 0 of 9 |
| EGDSLRYYAAL | GKSNRPS | SSRDSSGFQVF | nd / nd / nd | 2 of 9 (3.68) |
| EGDSLAYYYAN | GKNNRPS | RSRDSSGFQSF | nd / 4.50 / 3.35 | 3 of 9 (3.38) |
| EGDSLAYYYAN | LKNNRPS | SSYDSSGFQVF | 3.66 / 3.67 / nd | 4 of 9 (4.42) |
| EMDSLRYYYNN | GKNNRPS | LSRDSSGFQVF | 3.64 / 2.94 / nd | 4 of 9 (4.01) |
| EGDSMRYYYAN | GKNNRPS | SSRDSMGMQVF | 2.90 / 4.64 / nd | 1 of 9 (3.63) |
| EGDSLRYYYHN | GKNNRPS | SSRDSSGDQVF | 4.96 / 4.55 / 3.44 | 2 of 9 (3.28) |

Picked from the list: the 6 lowest averages where every replicate gave a value.

| CDR-L1 | CDR-L2 | CDR-L3 | log10 Kd (nM) by replicate | signal with controls |
|---|---|---|---|---|
| EGDSLRYYEAN | GMNNRPS | SSRDSSGFQVF | 1.31 / 1.26 / 0.68 | 8 of 9 (3.79) |
| EGDSLRYAYAN | GKNNRPS | SIRDSSGFQVQ | 1.59 / 1.55 / 1.00 | 1 of 9 (3.07) |
| AGDSLRYNYAD | GKNNRPS | SSRDSSGFQVF | 1.61 / 1.43 / 1.16 | 2 of 9 (3.83) |
| EGDSLRYYYAN | GKNNRPS | SSRDSSGAQVF | 2.16 / 1.49 / 1.13 | 0 of 9 |
| EGDSLRYYYAN | GESNRPS | SSRDSSGYQVF | 1.85 / 2.10 / 1.37 | 7 of 9 (4.11) |
| EGDSLRDYYAN | GKNNRPS | SSRDSSGYQVF | 2.10 / 1.91 / 1.85 | 3 of 9 (4.18) |

The measurements come from Engelhart et al. 2022 (doi:10.1038/s41597-022-01779-4) through the FLAb antibody collection.